# Measurements reported in patent US20090263396A1, “INHIBITORS OF T-DARPP FOR USE IN COMBINATION ANTI-CANCER THERAPIES” (VANDERBILT UNIVERSITY, priority 2007, published 2009).
# Tests used:
# [1] = test system: BT-474 cells; assay: CellTiter-Glo Luminescent Cell Viability Assay, BT-474; assay type: cell-based, human; details: trastuzumab 5 and 10 μg/ml, 24 h and 48 h; BT-474 compared to HR5 and HR6
# From the text: (§1) (FIG. 1B) Protein extracts from non-treated cells (BT-474, HR5, and HR6) were subjected to Western blot analysis of ERBB2 and t-DARPP. […] However, t-DARPP protein levels were dramatically higher in HR5 and HR6 as compared to BT-474 cells. […] (FIG. 1D) Protein extracts from non-treated SKBR-3-t-DARPP-1, SKBR-3-t-DARPP-7, and control SKBR-3 cells were subjected to immunobloting of EBB2 and t-DARPP. […] Gel loading was normalized for equal β-actin.
# (§2) FIGS. 3A-D—Knockdown of t-DARPP induces apoptosis in trastuzumab-resistant and -sensitive breast cancer cells. (FIG. 3A) BT-474, HR5, and HR6 cells were transfected with control scrambled siRNA or t-DARPP siRNA oligonucleotides and then subjected to Titer-Glo-Luminescent Viability Assay 24 hr and 48 hr post-transfection. […] (FIGS. 3B-D) Cells were transfected with control scrambled siRNA or t-DARPP siRNA oligonucleotides. […]
# (§3) Gene expression knockdown by small-interfering RNA (siRNA): The BT-474, HR5 and HR6 cells were transfected with control siRNA (sc-37007) or t-DARPP siRNA (sc-35173, a pool of 3 t-DARPP-specific siRNA oligonucleotides) using siRNA transfection reagent (sc-29528), and transfection medium (sc-36868) following the manufacturer's instructions (Santa Cruz Biotechnology, Santa Cruz, Calif.). […] In addition, AKT, p-Ser473 AKT, HSP90, and BCL2 were analyzed in HR6 cells. […]
# [2] = test system: HR5 cells; assay: CellTiter-Glo Luminescent Cell Viability Assay, HR5; assay type: cell-based, human; details: trastuzumab 5 and 10 μg/ml, 24 h and 48 h; HR5 vs parental BT-474
# From the text: as §1, §2, §3
# [3] = test system: HR6 cells; assay: CellTiter-Glo Luminescent Cell Viability Assay, HR6; assay type: cell-based, human; details: trastuzumab 5 and 10 μg/ml, 24 h and 48 h; HR6 vs parental BT-474
# From the text: as §1, §2, §3
# [4] = test system: SKBR-3 cells stably expressing t-DARPP (Clones #1 and #7); assay: CellTiter-Glo Luminescent Cell Viability Assay, SKBR-3 stably expressing t-DARPP; assay type: cell-based, human; details: following treatment with trastuzumab; vs control SKBR-3 cells
# From the text: as §1
# Vectors: The expression plasmid for t-DARPP was generated by PCR amplification of the full-length coding sequence of t-DARPP and cloned in frame into pcDNA3.1 (Invitrogen Life Technologies, Carlsbad, Calif.). Cloning of t-DARPP was confirmed by sequencing and restriction enzyme digestion as described elsewhere (Belkhiri et al., 2005). Stably transfected SKBR-3 cells expressing t-DARPP or pcDNA3.1 empty vector were generated as described previously (Belkhiri et al., 2005). After selection with 400 μg/ml of neomycin (Invitrogen Life Technologies, Carlsbad, Calif.), the resulting resistant clones were screened for t-DARPP protein expression by Western blot analysis.
# Cell survival assay: 5×10^3 cells (BT474, HR5 and HR6 cells) per well were plated in a 96-well plate. […] This assay has high sensitivity in measurement of cell survival and can detect as little as a single cell or 0.01 picomoles of ATP. […]
# [5] = test system: BT-474 cells; details: Yakes et al., 2002; cited from earlier work
# [6] = test system: SKBR-3 cells; details: Yakes et al., 2002; cited from earlier work
# [7] = human, in vivo; cited from earlier work
substance,measurement,setting,value
trastuzumab,Cell survival,[1],significantly lower
same,Cell survival,[2],increased cell survival
same,Cell survival,[3],increased cell survival
same,Cell survival,[4],markedly higher
same,IC50,[5],0.2 to 0.5 µg/mL
same,IC50,[6],0.2 to 0.5 µg/mL
same,patients unable to tolerate the drug because of pre-existing heart problems,[7],Approximately 10 % of patients
